GIV-Gai inh – GIV-Galpha-i interaction inhibition; P08753; Galpha-i3/FITC-GIV peptide fluorescence polarization, 90 min; active compounds read low; scaled: aluminum fluoride 0%, vehicle 100%; percent of control (FP), % (no concentration beside the values); 210,000 compounds, 0.42% hits; AID 1224905;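 active means replicate mean at 85% of control or lower, very high polarization wells dropped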;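 further: wells of about 15 µL received 100 nL stock; the first replicate is given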
HCMV NEC inh – inhibitors of HCMV UL50-UL53 nuclear egress complex interaction; HTRF UL50-UL53 interaction, normalized percent inhibition; inhibition, % (test concentration not listed); AID 1918969; 190,000 compounds, 0.15% hits; in the data active means inhibition above about 27%, passing the limit was not always enough
GIV-Gai FP conf – GIV-Galpha-i3 inhibition, FP confirmation. shares compounds with GIV-Gai inh. FITC-GIV peptide binding to Galphai3, fluorescence polarization; stronger effect = lower value. fluorescence polarization, mP at 100 µM. 580 compounds, 38% hits. AID 1259350;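 active means inhibition score of 15 or more, meaning 100 minus mean polarization as percent of control over three replicates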
GIV Gai AS conf – GIV-Galpha-i3 inhibition, AlphaScreen confirmation. shares compounds with GIV-Gai inh. AlphaScreen Galphai3-GIV binding, purified proteins, 90 min; stronger effect = lower value. AlphaScreen counts at 100 µM. 580 compounds, 39% hits. AID 1259351;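 active means inhibition score at or above a set limit, where the score is 100 minus the three-replicate mean percent of control signal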
Numbers stand for hits. Hits are enriched below; roughly 0.43% of the tested compounds scored in any of these assays.

Results for OCC1O[C@H](O)C(Cl)C(O)C1O (stereo partly drawn) ?
GIV-Gai inh: inactive; HCMV NEC inh: inactive

Results for OCC1O[C@H]([S-])[C@@H](O)C(O)[C@@H]1O.[Au+] (stereo partly drawn) ?
GIV-Gai inh: 65; HCMV NEC inh: inactive; GIV-Gai FP conf: 57; GIV Gai AS conf: 6583

What do the screens show for `Oc1ccc2ncccc2c1C(Nc1ccccn1)c1ccco1` (stereo not drawn)?
GIV-Gai inh: 79; HCMV NEC inh: inactive; GIV-Gai FP conf: inactive; GIV Gai AS conf: 5282

Results for Oc1ccccc1C(Nc1ccccn1)c1ccc2cccnc2c1O (stereo not drawn) ?
HCMV NEC inh: inactive

What do the screens show for `NN1C(=O)NC2(CCCCC2)C1=O`?
HCMV NEC inh: inactive

Results for O=C(Nc1cccc(Cl)c1)c1nnc(C2CCCN(C(=O)NC3CCCC3)C2)s1 (stereo not drawn) ?
GIV-Gai inh: inactive

What do the screens show for `C=CCSc1ncc(Cl)c(C(=O)Nc2sc3c(c2C(=O)OC)CCC3)n1`?
GIV-Gai inh: inactive; HCMV NEC inh: inactive

Results for C=CCSc1ncc(Cl)c(C(=O)Nc2sc3c(c2C(=O)OC)CCCC3)n1 ?
GIV-Gai inh: 85; HCMV NEC inh: inactive; GIV-Gai FP conf: inactive; GIV Gai AS conf: inactive

Results for COc1cc2c(cc1OC)CN(CC(N)=O)CC2 ?
HCMV NEC inh: inactive

What do the screens show for `COc1cc2c(cc1OC)CN(CCC(=O)O)CC2`?
GIV-Gai inh: inactive; GIV-Gai FP conf: inactive; GIV Gai AS conf: inactive

What do the screens show for `O=C(Nc1ccc(C(F)(F)F)cc1)c1cc(S(=O)(=O)N2CCN(c3ccccc3)CC2)ccc1F`?
GIV-Gai inh: inactive

How did CCc1nc2cccnc2n1CCNC(=O)Nc1ccc(OC)cc1 do in these assays?
GIV-Gai inh: inactive; HCMV NEC inh: inactive

Results for NC(=O)c1ccccn1 ?
HCMV NEC inh: inactive

Results for O=C(c1ccccc1)c1ccccn1 ?
GIV-Gai inh: 77; HCMV NEC inh: inactive; GIV-Gai FP conf: inactive; GIV Gai AS conf: inactive

Results for CNS(=O)(=O)c1cn(CC(=O)N2CCCC2)cc1S(=O)(=O)NC ?
GIV-Gai inh: inactive; HCMV NEC inh: inactive

What do the screens show for `COC(=O)c1[nH]c(C(=O)OC)c(O)c1O`?
GIV-Gai inh: 59; HCMV NEC inh: inactive; GIV-Gai FP conf: inactive; GIV Gai AS conf: inactive

How did COC(=O)c1[nH]c(C)c(C(=O)OC)c1C do in these assays?
HCMV NEC inh: inactive

How did CCOC(=O)C1=C(O)/C(=C/c2cccc(O)c2)SC1=Nc1ccc([N+](=O)[O-])cc1 do in these assays?
GIV-Gai inh: inactive

Results for CCCSc1nnc2c(n1)OC(c1c(OC)ccc3ccccc13)Nc1ccccc1-2 (stereo not drawn) ?
GIV-Gai inh: inactive; HCMV NEC inh: inactive

Results for CCSc1nnc2c(n1)OC(c1ccc(C)cc1)Nc1ccccc1-2 (stereo not drawn) ?
GIV-Gai inh: inactive; HCMV NEC inh: inactive

Results for CCCSc1nnc2c(n1)OC(c1ccc(OCC(=O)O)cc1)Nc1ccccc1-2 (stereo not drawn) ?
GIV-Gai inh: inactive

How did CCSc1nnc2c(n1)OC(c1ccc(Cl)cc1)Nc1ccccc1-2 (stereo not drawn) do in these assays?
GIV-Gai inh: 78; HCMV NEC inh: inactive; GIV-Gai FP conf: inactive; GIV Gai AS conf: inactive

Results for CCCSc1nnc2c(n1)OC(c1ccc(F)cc1)Nc1ccccc1-2 (stereo not drawn) ?
GIV-Gai inh: 66; HCMV NEC inh: inactive; GIV-Gai FP conf: inactive; GIV Gai AS conf: inactive

What do the screens show for `CCSc1nnc2c(n1)OC(c1c(OC)ccc3ccccc13)Nc1ccccc1-2` (stereo not drawn)?
GIV-Gai inh: -4.5; HCMV NEC inh: inactive; GIV-Gai FP conf: inactive; GIV Gai AS conf: 32956

How did CN(C)S(=O)(=O)c1ccc(Nc2nc3ccccc3n3nnnc23)cc1 do in these assays?
GIV-Gai inh: inactive; HCMV NEC inh: inactive

Results for CC(=Nc1cccc(N2CCCC2=O)c1)C1=C(O)CC2(CCCCC2)CC1=O ?
HCMV NEC inh: inactive

How did CCOC(=O)c1nc(Nc2cccc(Cl)c2C)c2ccccc2n1 do in these assays?
GIV-Gai inh: inactive; HCMV NEC inh: inactive

What do the screens show for `COC(=O)c1cnn(-c2ccc(F)cc2F)c1C(OC)OC`?
GIV-Gai inh: inactive; HCMV NEC inh: inactive

What do the screens show for `CCN(CC)c1ncc(C(=O)O)cc1NS(=O)(=O)c1c(C)cc(C)cc1C`?
GIV-Gai inh: 81; HCMV NEC inh: inactive; GIV-Gai FP conf: inactive; GIV Gai AS conf: inactive

Results for CC(C)c1ccc(S(=O)(=O)Nc2cc(C(=O)O)ccc2N(C)C)cc1 ?
GIV-Gai inh: inactive; HCMV NEC inh: inactive

How did CCN(CCN(C)C)c1ncc(NS(=O)(=O)c2cc(C)c(C)cc2C)cc1C(=O)O do in these assays?
GIV-Gai inh: 58; HCMV NEC inh: inactive; GIV-Gai FP conf: 43; GIV Gai AS conf: inactive

What do the screens show for `CCN(CCN(C)C)c1ncc(C(=O)O)cc1NS(=O)(=O)c1ccc(F)c(F)c1`?
GIV-Gai inh: 61; HCMV NEC inh: inactive; GIV-Gai FP conf: 36; GIV Gai AS conf: inactive

Results for CCN(CCN(C)C)c1ncc(C(=O)O)cc1NS(=O)(=O)c1ccc(C(C)C)cc1 ?
GIV-Gai inh: 60; HCMV NEC inh: inactive; GIV-Gai FP conf: 41; GIV Gai AS conf: inactive

Results for CCN(CC)c1ncc(NS(=O)(=O)c2cc(C)c(C)cc2C)cc1C(=O)O ?
GIV-Gai inh: inactive; HCMV NEC inh: inactive

How did Cc1cc(C)cc(S(=O)(=O)Nc2cc(C(=O)O)cnc2N(CC(C)C)CC(C)C)c1 do in these assays?
GIV-Gai inh: inactive; HCMV NEC inh: inactive

What do the screens show for `CCCCN(C)c1ncc(C(=O)O)cc1NS(=O)(=O)c1cc(F)ccc1F`?
GIV-Gai inh: inactive; HCMV NEC inh: inactive

How did CN=c1scc(C)n1/N=C/C1CCCCC1 do in these assays?
HCMV NEC inh: inactive

What do the screens show for `O=S(=O)(NCCc1nc(-c2ccc(Cl)cc2)n[nH]1)c1ccc(F)cc1`?
GIV-Gai inh: inactive

How did C=CCc1c(C)nn(-c2nc(CC(=O)Nc3nc(C)cs3)cs2)c1C do in these assays?
GIV-Gai inh: inactive; HCMV NEC inh: inactive

How did COc1ccc(-c2nnc(SCC(=O)c3ccccc3)n2-c2ccccc2)cc1 do in these assays?
GIV-Gai inh: inactive; HCMV NEC inh: inactive

What do the screens show for `CN1CCN(c2ccc(C(=O)O)cc2NS(=O)(=O)c2ccccc2)CC1`?
GIV-Gai inh: inactive; HCMV NEC inh: inactive

How did CN(C)c1ncc(C(=O)O)cc1NS(=O)(=O)c1ccccc1 do in these assays?
GIV-Gai inh: 49; HCMV NEC inh: inactive; GIV-Gai FP conf: 36; GIV Gai AS conf: 8377

How did COc1cc(-c2cc(C(F)(F)F)n3ncc(C(=O)Nc4ccc(C(C)=O)cc4)c3n2)cc(OC)c1OC do in these assays?
GIV-Gai inh: inactive; HCMV NEC inh: inactive

Results for COc1ccc(NC(=O)c2sc3nc4n(c(=O)c3c2C)CCC4)cc1Cl ?
GIV-Gai inh: 83; HCMV NEC inh: inactive; GIV-Gai FP conf: inactive; GIV Gai AS conf: inactive

How did COc1cc(NC(=O)c2sc3nc4n(c(=O)c3c2C)CCCCC4)cc(OC)c1OC do in these assays?
GIV-Gai inh: inactive; HCMV NEC inh: inactive

How did Cc1c(C)[n+]([O-])c2ccc3c(non3O)c12 do in these assays?
GIV-Gai inh: inactive; HCMV NEC inh: inactive

Bioassay records as filed in PubChem.
